Source: patent US9102636B2, “Analgesic compounds, compositions, and uses thereof” (Galleon Pharmaceuticals, Inc., priority 2010, dated 2015)

Key:
[1] = test system: Fentanyl induced toxicity (Hargreaves); assay: Fentanyl induced toxicity (Hargreaves): paw withdrawal latency
[2] = test system: established opioid-induced tolerance/hyperalgesia; assay: Effect on existing opioid tolerance/hyperalgesia; conditions: rat; fentanyl for two days, single IV dose on day 3; FIG. 7
[3] = test system: Fentanyl induced toxicity (Survival); assay: Fentanyl induced toxicity (Survival); conditions: for Survival (%): Compound 2 25 mg/kg i.v. preemptive

CC1(C)SC(Nc2ccccc2O)=N[C@@H]1C(=O)O [Compound 2, (R)-2-(2-hydroxyphenylamino)-thiazoline-5,5-dimethyl-4-carboxylic acid]
Paw withdrawal latency ([1]; time 15 (min after first fentanyl), Cpd 2 25 mg/kg i.v. preemptive, fentanyl 25 μg/kg i.v. hourly, individual rats, cut-off 40 seconds): 40
Paw withdrawal latency ([1]; time 75, as E24): 40
Paw withdrawal latency ([1]; time 135, as E24): 40
Paw withdrawal latency ([1]; time 195, as E24): 40
Paw withdrawal latency ([1]; time 255, as E24): 40
Paw withdrawal latency ([1]; time 315, as E24): 40
effect on established opioid-induced tolerance/hyperalgesia [2]: attenuates established opioid-induced tolerance/hyperalgesia
Survival (%) ([3]; 0 h, fentanyl 25 μg/kg i.v. hourly for 6 h, n = 6): 100%
Survival (%) ([3]; 1 h, fentanyl 25 μg/kg i.v. hourly): 100%
Survival (%) ([3]; 2 h, fentanyl 25 μg/kg i.v. hourly): 100%
Survival (%) ([3]; 3 h, fentanyl 25 μg/kg i.v. hourly): 83.33%
Survival (%) ([3]; 4 h, fentanyl 25 μg/kg i.v. hourly): 83.33%
Survival (%) ([3]; 5 h, fentanyl 25 μg/kg i.v. hourly): 83.33%
Survival (%) ([3]; 6 h, fentanyl 25 μg/kg i.v. hourly): 83.33%
animals died ([3]; rat, single 25 mg/kg i.v. preemptively, fentanyl 25 μg/kg hourly for 6 h, vehicle 5/6): 1/6
